Results from paper doi:10.1101/2024.12.05.627101v1 (biorxiv, 2024).

Sequences of proteins named here, by UniProt entry; tags and fusion partners are left off. Residues count along the entry.
UniProt P41594, 21-1180 isoform P41594-2: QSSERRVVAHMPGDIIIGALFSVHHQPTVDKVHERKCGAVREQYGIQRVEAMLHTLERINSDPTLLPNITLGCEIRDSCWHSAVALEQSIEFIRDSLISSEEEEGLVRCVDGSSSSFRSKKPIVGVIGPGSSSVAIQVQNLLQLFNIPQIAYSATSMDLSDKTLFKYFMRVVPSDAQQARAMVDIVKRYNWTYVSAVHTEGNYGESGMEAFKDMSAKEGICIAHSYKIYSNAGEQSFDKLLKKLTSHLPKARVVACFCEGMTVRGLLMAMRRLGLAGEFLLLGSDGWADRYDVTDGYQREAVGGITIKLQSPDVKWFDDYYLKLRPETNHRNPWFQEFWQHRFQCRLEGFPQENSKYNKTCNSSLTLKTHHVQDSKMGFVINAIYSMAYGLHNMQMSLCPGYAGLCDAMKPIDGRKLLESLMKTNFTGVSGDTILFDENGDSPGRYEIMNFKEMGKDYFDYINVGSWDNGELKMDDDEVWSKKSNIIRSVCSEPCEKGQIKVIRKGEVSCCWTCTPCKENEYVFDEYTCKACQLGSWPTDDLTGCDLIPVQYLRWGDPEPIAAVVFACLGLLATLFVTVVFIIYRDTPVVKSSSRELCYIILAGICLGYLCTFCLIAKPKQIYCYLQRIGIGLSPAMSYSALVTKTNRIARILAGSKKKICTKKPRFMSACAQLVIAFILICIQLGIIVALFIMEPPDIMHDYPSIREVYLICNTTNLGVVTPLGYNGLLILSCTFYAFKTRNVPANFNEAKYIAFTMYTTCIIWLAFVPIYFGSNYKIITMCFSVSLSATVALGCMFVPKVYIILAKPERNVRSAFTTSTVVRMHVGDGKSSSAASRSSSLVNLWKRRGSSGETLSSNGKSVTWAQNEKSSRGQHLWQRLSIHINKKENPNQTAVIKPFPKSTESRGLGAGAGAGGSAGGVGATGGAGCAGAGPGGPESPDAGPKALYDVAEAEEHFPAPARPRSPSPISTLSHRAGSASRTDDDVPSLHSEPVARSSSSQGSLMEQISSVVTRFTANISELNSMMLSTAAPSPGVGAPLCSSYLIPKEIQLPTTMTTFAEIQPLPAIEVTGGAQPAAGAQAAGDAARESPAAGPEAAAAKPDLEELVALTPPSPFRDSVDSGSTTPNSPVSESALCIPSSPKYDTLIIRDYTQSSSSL

Biological target: human mGlu5 (hmGlu5) (Homo sapiens, UniProt P41594)
Experiment: whole-cell [3H]methoxy-PEPy inhibition binding
Assay type: cell-based
Conditions: ~3 nM [3H]methoxy-PEPy, RT, pH 7.4, 1 h; one-site competitive fit, MPEP site

5-methyl-2-(phenylethynyl)pyridine [5MPEP]
pKi: 5.24 ± 0.07
